PubChem BioAssay AID930 (National Center for Advancing Translational Sciences (NCATS), 2007)
The entries are a selection whose mix differs from that of the whole data set. Active and inactive are the calls of the source. Calls come from the whole dose curve; as a rule, active = well fitted activation curve with a large enough effect; inconclusive = small, poorly fitted or top-dose-only effect; inactive = flat fitted curve, though single readings scatter.

Assay: Confirmation and Secondary Assay for Modulators of Hemoglobin Beta Chain Splicing at IVS2 705 locus; note: % of control where 0% means no effect
Conditions: HeLa EGFP-705 splicing reporter, GFP fluorescence, 48 h; at 46.1 µM (top of the series) unless noted
Text: NIH Chemical Genomics Center [NCGC] NIH Molecular Libraries Screening Centers Network [MLSCN] MLSCN Grant: 1 X01 MH080684-01 PI Name: Dr. Ryszard Kole NCGC Assay Overview: Modulation of Alternative Splicing as Therapy Abnormal splicing is associated with a number of diseases, including cancer and genetic diseases such as cystic fibrosis, muscular dystrophy and beta-thalassemia. Alteration of disease associated splicing patterns provides a promising target for treatment. […] Mutations in the second intron of the b-globin gene at positions 654 or 705 are clinically relevant and cause mis-splicing which results in an out of frame gene product. […] EGFP-705 HeLa Cells as screen system. HeLa cell lines were stably transfected with a construct in which the EGFP (enhanced green fluorescent protein) cDNA was interrupted by the second intron of the beta-globin gene (IVS2-705). The ISV2 intron contains mutations which cause mis-splicing of EGFP and premature termination of EGFP which results in a nonfluorescent protein product. […]
NCGC Assay Protocol Summary: Confirmatory Screening. […] Plates were read in the Acumen Explorer (TTP Labtech) using 488 nm laser excitation and 500-520 nm emission PMT filter in a 1 x 8 uM capture mode. Fluorescnet objects ranging in size from 5 to 250 uM were measured and the total peak GFP intensity for each well was used for data analysis. […]
For `CCN(CCCl)Cc1ccccc1C`, the activation was inactive: 1.24% [at 38.3 µM]. For `OCCSCCO`, the activation was inactive: 0.74%.
